This is an account of results in patent US9353061B2, “3,5,N-trihydroxy-alkanamide and derivatives: method for making same and use thereof” (Academia Sinica, priority 2012, dated 2016).

This assay has as its system HS68 normal human fibroblast cells. The assay is classed as cell-based. Conditions: ratio of IC50 values, cancer cell and normal cell.

As to `CCC(C)(C)C(=O)O[C@H]1C[C@@H](C)C=C2C=C[C@H](C)[C@H](CC[C@@H](O)C[C@@H](O)CC(=O)NO)[C@H]21` [Simva-HA, (3R,5R)-7-{(1S,2S,6R,8S,8aR)-Hexahydro-2,6-dimethyl-8-[2-dimethylbutyryloxy]naphthalenyl}-3,5-dihydroxy-N-hydroxyheptanamide], the “SI A549/HS68 (selectivity index)” value was greater than 5.0.
